In series [1] the test system is NMDA receptor (noncompetitive MK-801 site), rat forebrain. Type of series: binding.
Series [2] deals with NMDA receptor (competitive site), rat forebrain. Put plainly: [3H]CGS-19755 displacement, rat forebrain membranes. Type of series: binding. The following applies: CNS region forebrain.
In series [3] the test system is opiate receptors of rat brain. Particulars: Horng; cited from earlier work.
For another series, the system named is rat. Put plainly: Overt CNS/motor effects and 60-degree mesh test after spinal drug.

Each structure is given as a SMILES string. “Also recorded” adds a separate entry of the source. Read-outs that look alike come from different tables or passages of the source. A value given as a limit tells only on which side of the number the result lay.

For orientation: Ki means the equilibrium dissociation constant of an inhibitor or competing ligand from its target.

As to `CCC(=O)C(CC(C)N(C)C)(c1ccccc1)c1ccccc1` (racemic) [dl-Methadone], in series [1], the “affinity for NMDA receptor (noncompetitive MK-801 site)” value (shortened to “affinity for NMDA receptor”) was “moderate affinity” and the “displacement of [3H]MK-801 binding” value was “displacement curves similar to dextromethorphan”.
For the molecule `COc1ccc2c(c1)[C@]13CCCC[C@@H]1[C@H](C2)N(C)CC3` [Dextromethorphan], the Ki in series [1] (read-out: [3H]MK-801 Ki, forebrain) is 5 ± 0.3 µM; in series [2] it was over 100 µM. The “affinity for NMDA receptor” value in series [1] (spinal cord and forebrain) is “moderate affinity”.
With `CCC(=O)C(C[C@H](C)N(C)C)(c1ccccc1)c1ccccc1` [d-Methadone, (S)-(+)-methadone], in series [1], the “affinity for NMDA receptor” value is recorded as “moderate affinity; also recorded: μM affinity, similar to that of dextromethorphan” and the “displacement of [3H]MK-801 binding” value is recorded as “displacement curves similar to dextromethorphan”. Besides, the opioid activity result in series [3] is “weak or inactive”. The “ability to negotiate the 60-degree mesh” value in the series on rat (32 μg/rat, immediately before formalin) is on record as “able to negotiate the 60-degree mesh”. The “transient motor paralysis of the hind limbs” value with rat (160 μg/rat spinal) amounted to 44%. Moreover, the “transient motor paralysis of the hind limbs” value with rat (320 μg/rat spinal) is 100%. Besides, the “onset of the paralysis after administration” value in the series with rat (160 and 320 μg/rat spinal) was “approximately 1 minute”.
`CCC(=O)C(C[C@@H](C)N(C)C)(c1ccccc1)c1ccccc1` [l-Methadone, (R)-(-)-methadone]: in series [1], the “affinity for NMDA receptor” value is given as “moderate affinity; also recorded: μM affinity, similar to that of dextromethorphan”; the “displacement of [3H]MK-801 binding” value is reported as “displacement curves similar to dextromethorphan”; the “relative potency in displacing [3H]MK-801” value is given as “slightly more potent”. In series [3], the “ability to displace [3H]naloxone binding vs d-methadone (greater)” value is on record as 30 fold.

These data come from US6008258A, “d-methadone, a nonopioid analegesic” (priority 1998, dated 1999).
